Apparent affinities of Ab-95 variants for a coronavirus HR2 peptide

The target is the same throughout: PDVDLGDISGINAS, from the HR2 region of SARS-CoV-2 spike.

Parent scFv Ab-95: VH joined to VL by the linker GGGGSGGGGSGGGGS. Changes lie in the light chain CDRs alone.
VH: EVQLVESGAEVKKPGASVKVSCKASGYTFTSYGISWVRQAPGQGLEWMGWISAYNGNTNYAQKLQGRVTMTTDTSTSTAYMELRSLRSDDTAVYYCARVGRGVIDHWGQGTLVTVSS
VL: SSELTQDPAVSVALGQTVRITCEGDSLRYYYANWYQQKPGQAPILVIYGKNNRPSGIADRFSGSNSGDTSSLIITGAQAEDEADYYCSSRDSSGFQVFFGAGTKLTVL

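The starting antibody came from a phage panning campaign against this peptide. Library AAYL52 holds single substitutions and randomly drawn double and triple substitutions in the CDRs. Affinity was read by AlphaSeq, a pooled yeast mating assay with surface-displayed partners. Binding brings cells together so that they mate, and sequencing counts the barcode pairs among the diploids. Each replicate has its own calibration line, from reference interactions of the BCL2 family. There are three technical replicates.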

Changes read parent residue, position, new residue, counted from the first residue of the VL shown.
Values are log10 of the apparent Kd in nM; lower means stronger binding.
A pair that was not seen in that replicate is written "n.d."; this usually means weak binding, but a binder can also be missed.
In this assay the parent's reference entry averaged 2.31; its copy inside this library read 2.25.

changes,log10 Kd (nM) by replicate,control signals
D25E+S88A+S89T,2.60 / 2.29 / 2.38,4 of 9 (4.80)
G49E+N51D+F95N,3.59 / 4.54 / n.d.,4 of 9 (4.03)
K50Q+S89G+F98K,2.18 / 2.16 / 1.90,4 of 9 (4.01)
S26Y+Y31C+S93W,3.57 / n.d. / n.d.,1 of 9 (3.20)
G24I+Q96G+F98A,n.d. / 4.45 / 3.72,4 of 9 (4.07)
R28T+K50M+D91P,5.30 / n.d. / n.d.,3 of 9 (3.45)
E23Y+P54F+S89P,n.d. / 4.53 / n.d.,1 of 9 (4.10)
E23V+N33V+R90V,3.87 / n.d. / n.d.,1 of 9 (3.88)
L27P+N52M+S92C,n.d. / n.d. / n.d.,4 of 9 (4.01)
Y31E+A32I+F98H,2.39 / n.d. / 1.91,1 of 9 (2.08)
G24Q+G49W,3.78 / 4.14 / n.d.,2 of 9 (4.54)
Y29A+D91H+V97C,2.29 / 2.23 / 2.57,5 of 9 (4.02)
D25K+N51L+P54W,3.81 / 5.80 / n.d.,7 of 9 (4.03)
N52Q+S55Y+S92N,2.20 / 2.53 / 2.28,1 of 9 (3.50)
Y31G+G49Y+S88E,2.75 / 2.61 / 2.39,1 of 9 (4.26)
E23Q+R28W+G49M,4.16 / 5.52 / 4.10,3 of 9 (3.62)
Y29N+P54Y+F95R,2.55 / 3.20 / 2.22,3 of 9 (3.26)
D25S+N52K+D91N,4.34 / n.d. / n.d.,2 of 9 (3.61)
N51V+S89D+S92N,5.31 / n.d. / 4.54,4 of 9 (3.69)
L27F+Y29V+F95T,3.23 / n.d. / n.d.,1 of 9 (4.61)
R53G+S88Q+S93V,n.d. / 3.36 / 1.88,0 of 9
R28Q+N52S+Q96I,3.72 / 2.90 / 3.02,7 of 9 (4.06)
Y30C+S55K+S89W,2.92 / 3.04 / 3.68,2 of 9 (4.68)
G49I+N52K+S89F,n.d. / n.d. / 3.86,5 of 9 (3.58)
L27I+R28W+Y31T,2.03 / 1.67 / 1.16,8 of 9 (4.24)
R53Y+D91F+V97A,4.55 / n.d. / n.d.,3 of 9 (4.63)
S88D+V97I,5.20 / n.d. / n.d.,2 of 9 (3.92)
R28S+F98V,3.14 / 2.70 / 2.81,3 of 9 (4.09)
K50P+N52V+S88L,3.50 / 2.72 / 4.11,1 of 9 (3.55)
A32W+S93C+V97S,3.58 / 4.51 / 4.28,4 of 9 (3.18)
G49E+S93T+Q96E,4.68 / n.d. / 3.65,0 of 9
N33S+G49H+S89D,4.52 / n.d. / n.d.,0 of 9
D25F+Y30E+F95N,2.73 / 2.87 / 3.08,4 of 9 (3.85)
S26L+R90N+F95R,n.d. / n.d. / n.d.,1 of 9 (3.97)
S89H+G94H+Q96K,3.40 / 3.17 / 2.86,3 of 9 (3.64)
S26T+S88I+D91E,3.87 / 3.18 / n.d.,2 of 9 (3.25)
Y30L+R53F+D91R,4.30 / 5.06 / n.d.,7 of 9 (4.53)
E23Y+S26R+R28Y,n.d. / 3.00 / n.d.,2 of 9 (3.32)
G24P+K50T+S88R,n.d. / 4.86 / n.d.,4 of 9 (3.77)
L27N+K50A+N52A,3.94 / n.d. / n.d.,5 of 9 (3.95)
S26V+Y30P+N33L,4.74 / 4.45 / n.d.,6 of 9 (3.79)
R53I,2.80 / 2.40 / 2.04,2 of 9 (3.80)
Y31C+A32G+S88A,3.16 / 3.68 / 2.83,4 of 9 (3.84)
Y30A+Q96N+V97F,2.17 / 1.98 / 1.59,2 of 9 (4.43)
L27N+Y31N+P54E,2.68 / 2.89 / 2.64,5 of 9 (3.47)
Y30T+K50I+N51P,4.20 / 4.04 / 4.25,3 of 9 (3.66)

Picked from the list: the 8 lowest averages where every replicate gave a value.

changes,log10 Kd (nM) by replicate,control signals
L27I+R28W+Y31T,2.03 / 1.67 / 1.16,8 of 9 (4.24)
Y30A+Q96N+V97F,2.17 / 1.98 / 1.59,2 of 9 (4.43)
K50Q+S89G+F98K,2.18 / 2.16 / 1.90,4 of 9 (4.01)
N52Q+S55Y+S92N,2.20 / 2.53 / 2.28,1 of 9 (3.50)
Y29A+D91H+V97C,2.29 / 2.23 / 2.57,5 of 9 (4.02)
R53I,2.80 / 2.40 / 2.04,2 of 9 (3.80)
D25E+S88A+S89T,2.60 / 2.29 / 2.38,4 of 9 (4.80)
Y31G+G49Y+S88E,2.75 / 2.61 / 2.39,1 of 9 (4.26)

Nonspecific signal, from three strains lacking the peptide, appeared in 28% of pairings of library AAYL52, centred on 3.91 (5% of these signals below 2.90); values are not corrected for it. Also given: how often the same scFv was detected with the empty control strains, with their mean in brackets.

Values reported by Engelhart et al. 2022, doi:10.1038/s41597-022-01779-4 (FLAb copy).